Measurements taken from PMC3463759 (Clinical cancer research : an official journal of the …, 2012).
Where two headings read alike, the source gives them in different places.

[1] = all patients (N=20), all cycles
[2] = dasatinib 100 mg qd + paclitaxel + carboplatin, N=6, all cycles, patients (%)
[3] = dasatinib 120 mg qd + paclitaxel + carboplatin, N=3, all cycles, patients (%)

Cc1nc(Nc2ncc(C(=O)Nc3c(C)cccc3Cl)s2)cc(N2CCN(CCO)CC2)n1 [dasatinib, N-(2-chloro-6-methyl-phenyl)-2-(6-(4-(2-hydroxyethyl)-piperazin-1-yl)-2-methylpyrimidin-4-ylamino)thiazole-5-carboxamide]
1 (33): Anemia, Grade 3 [3] | Dermatogic: Flushing, Grade 1 [3] | Gastrointestinal: Constipation, Grade 1 [3] | Neutropenia, Grade 3 [3] | Pulmonary: Cough, Grade 1 [3] | Pulmonary: Dyspnea, Grade 2 [3]
2 (33): Fatigue, Grade 1 [2] | Gastrointestinal: Constipation, Grade 2 [2] | Gastrointestinal: Diarrhea, Grade 2 [2] | Gastrointestinal: Nausea, Grade 1 [2] | Gastrointestinal: Nausea, Grade 2 [2] | Gastrointestinal: Vomiting, Grade 1 [2] | Neutropenia, Grade 3 [2]
1 (17): Anemia, Grade 1 [2] | Anemia, Grade 3 [2] | Dermatogic: Flushing, Grade 1 [2] | Fatigue, Grade 2 [2] | Gastrointestinal: Anorexia, Grade 2 [2] | Gastrointestinal: Dysgeusia, Grade 1 [2] | Gastrointestinal: Vomiting, Grade 2 [2] | Neurologic: Anxiety, Grade 2 [2] | Neurologic: Sensory neuropathy, Grade 2 [2] | Pain: Head, Grade 1 [2] | Pain: Other, Grade 1 [2] | Pain: Other, Grade 3 [2] | Pulmonary: Cough, Grade 1 [2] | Pulmonary: Dyspnea, Grade 3 [2]
3 (50): Neurologic: Sensory neuropathy, Grade 1 [2]
2 (67): Anemia, Grade 2 [3] | Gastrointestinal: Vomiting, Grade 1 [3] | Neurologic: Sensory neuropathy, Grade 1 [3] | Neutropenia, Grade 4 [3] | Pulmonary: Dyspnea, Grade 1 [3]
30%: anemia grade 3–4 [1]
10%: fatigue grade 2–3 [1]
3 (100): Fatigue, Grade 1 [3] | Gastrointestinal: Diarrhea, Grade 1 [3] | Gastrointestinal: Nausea, Grade 1 [3]
4 (67): Anemia, Grade 2 [2] | Gastrointestinal: Diarrhea, Grade 1 [2] | Neutropenia, Grade 4 [2]
